Laboratory results taken from patent publication US10137110B2, “1-cyclohexyl-2-phenylaminobenzimidazoles as mIDH1 inhibitors for the treatment of tumors” (Bayer Pharma Aktiengesellschaft, priority 2014, dated 2018).

By UniProt entry, the sequences of proteins in these tests, tags left out.
UniProt O75874, whole entry R132H: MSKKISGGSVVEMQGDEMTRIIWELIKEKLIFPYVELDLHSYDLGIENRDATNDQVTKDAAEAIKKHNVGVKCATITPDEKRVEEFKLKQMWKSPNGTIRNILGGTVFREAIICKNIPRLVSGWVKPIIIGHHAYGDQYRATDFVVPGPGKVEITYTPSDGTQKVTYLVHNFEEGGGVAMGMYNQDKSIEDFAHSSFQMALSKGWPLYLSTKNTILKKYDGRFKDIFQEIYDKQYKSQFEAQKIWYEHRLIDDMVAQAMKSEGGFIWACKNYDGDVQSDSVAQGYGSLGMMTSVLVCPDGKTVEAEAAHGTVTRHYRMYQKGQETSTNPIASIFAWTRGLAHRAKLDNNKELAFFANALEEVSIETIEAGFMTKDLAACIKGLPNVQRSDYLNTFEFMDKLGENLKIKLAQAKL

Target: IDH1 R132H enzyme (Homo sapiens (Human), UniProt O75874, R132H)
Test: Mutant IDH1 R132H biochemical assay
Conditions: NADPH consumption, luminescent readout; 1.5 nM enzyme, 250 μM α-KG, 1 μM NADPH, 30 minutes, 32° C.; test range 0.002-10 μM
Protocol: Mutant IDH1 R132H Biochemical Assay
mIDH1 catalyzes the NADPH-dependent reduction of alpha-ketoglutarate (α-KG) to (2R)-2-hydroxyglutarate (2-HG). NADPH consumption was measured by luminescent readout.
The biochemical reactions were performed at 32° C. in 384-well plates using a reaction volume of 41 μl and the following assay buffer conditions: 50 mM Tris pH 7.5, 100 mM NaCl, 20 mM MgCl2, 0.05% BSA, 0.01% Brij, 1 μM NADPH, and 250 μM α-KG. The IDH1 R132H enzyme was used in a final concentration of 1.5 nM. Test compounds were used in a concentration range between 0.002 and 10 μM. The final DMSO concentration was 2.4%.
The reaction was incubated for 30 minutes, then 40 μl of detection mix (0.75 μg/ml Luciferase, 0.02 U/ml Oxidoreductase, 4 μg/ml FMN, 2 μl/ml Decanal/Ethanol, 50 mM Tris pH 7.5, 0.5% Glycerin, 0.01% Tween-20, 0.05% BSA) was added. Luminescence was measured on a luminescent reader (10 seconds measuring time, 1 second integration period, 30% sensitivity). The decrease in luminescence is proportional to mIDH1 activity. IC50 values are determined by interpolation from plots of relative luminescence versus inhibitor concentration.

Question: Which IC50 does the source give for Cc1nnc(-c2ccc3c(c2)nc(Nc2ccc(OC(F)(F)F)cc2)n3[C@H]2C[C@@H](C)CC(C)(C)C2)o1 (racemic) [Example 2-31, (±) 5-(5-methyl-1,3,4-oxadiazol-2-yl)-N-[4-(trifluoromethoxy)phenyl]-1-[(cis)-3,3,5-trimethylcyclohexyl]-1H-benzimidazol-2-amine] here?
Answer: 390 nM

Question: With COc1c(F)cc(-c2ccc3c(c2)nc(Nc2ccc(OC(F)(F)F)cc2)n3[C@H]2C[C@@H](C)CC(C)(C)C2)cc1F (racemic) [Example 2-32, (±) 5-(3,5-difluoro-4-methoxyphenyl)-N-[4-(trifluoromethoxy)phenyl]-1-[(cis)-3,3,5-trimethylcyclohexyl]-1H-benzimidazol-2-amine] as the compound, how does the IC50 read?
Answer: ≥ 10000 nM
